# AlphaSeq binding of Ab-14 light chain variants to a spike HR2 peptide

From the AlphaSeq antibody data of Engelhart et al. 2022 (doi:10.1038/s41597-022-01779-4), copy in the FLAb collection.

The target is the same throughout: PDVDLGDISGINAS, from the HR2 region of SARS-CoV-2 spike.

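Phage display of a naive human antibody library on the peptide gave the parent. In library AAYL50, one, two or three CDR residues were substituted; doubles and triples were drawn at random. Affinity was read by AlphaSeq, a pooled yeast mating assay with surface-displayed partners. Pairs that bind mate more often; barcode pairs of the diploids are counted by sequencing. Scores were corrected for input abundance and mapped to Kd with protein pairs of known affinity run in the same pool. The assay was run in three technical replicates.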

Parent: Ab-14, a human scFv built as VH, three GGGGS repeats, VL. Only the CDRs of the light chain vary.
VH: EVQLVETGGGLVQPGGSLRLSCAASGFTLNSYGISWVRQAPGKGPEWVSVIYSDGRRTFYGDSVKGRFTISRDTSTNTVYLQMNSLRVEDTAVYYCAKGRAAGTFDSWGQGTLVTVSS
VL: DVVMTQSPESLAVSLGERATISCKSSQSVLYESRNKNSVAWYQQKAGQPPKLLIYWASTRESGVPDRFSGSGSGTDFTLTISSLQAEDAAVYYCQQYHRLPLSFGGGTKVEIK

Positions count from residue 1 of the parent VL; E32G puts G in place of E.
Numbers give log10(Kd / nM), so 0 is 1 nM and 3 is 1 µM. Smaller is tighter.
Averages over replicates are reported, and they cover detected replicates only.
"nd" means that the variant was in the library but no mating with the target was seen in any replicate; the authors take this as a sign of poor binding, and no number exists.

changes,mean log10 Kd (nM),detected,signal with controls
E32G+S58A+L100Y,nd,0/3,1/9
N37L+A57N+Q96N,nd,0/3,1/9
K24N+S28Y+A40P,nd,0/3,2/9
S28C+N35Y+A57H,nd,0/3,0/9
N37M+V39W+A57R,3.29,1/3,4/9
S25C+R60W+P101C,nd,0/3,1/9
K24N+S26I+H98M,nd,0/3,0/9
Q27L+E61S+L102I,nd,0/3,0/9
V29N+R34G+L102H,3.34,1/3,1/9
R60W+S62N+L100R,4.79,2/3,3/9
R34M+S58N+R99G,1.41,3/3,0/9
Q27E+K36C+L102Y,2.04,3/3,4/9
S25R+R34F+L100G,1.74,3/3,1/9
E61L+P101R,5.09,2/3,4/9
E32V+A40P+H98N,4.90,3/3,3/9
R60L+Q96A+L100N,1.71,3/3,1/9
S38N+Q95R+L102V,4.56,1/3,1/9
S25V+N35F+E61S,0.32,3/3,2/9
L30F+N37T+A57I,4.21,3/3,4/9
N35C+A40Y+S103C,nd,0/3,0/9
S28W+L102Q+S103C,2.18,3/3,0/9
W56T+T59G+P101L,3.82,2/3,0/9
L30Q+V39R+A57K,5.16,2/3,0/9
S28R+E61D+L100Y,3.47,2/3,1/9
V29C+S33R+Q96M,2.82,3/3,1/9
V29L+Y31Q+E61K,nd,0/3,0/9
S25P+A57V+S58G,nd,0/3,0/9
S25H+W56M+Q96V,1.07,3/3,1/9
V29Q+S38E+P101L,nd,0/3,0/9
S25F+R99G+S103G,1.96,3/3,1/9
K24Q+S38G+S58I,nd,0/3,1/9
Q27S+Y97A+L100W,4.97,3/3,2/9
Y31T+S38V+L100W,nd,0/3,1/9
L30V+A57M+Q95L,4.94,1/3,1/9
K24Y+A40Q+A57W,nd,0/3,1/9

Second part, the sequence after the result:

mean log10 Kd (nM),detected,signal with controls,changes
1.86,3/3,0/9,Y31K+S38A+R99A
4.26,1/3,0/9,K24L+R99Q+S103C
4.88,3/3,6/9,A40L+A57T+T59Q
3.98,2/3,1/9,A40M+Q96A+L102Y
nd,0/3,3/9,Y31L+V39H+L100R
0.73,3/3,1/9,Q27L+R34K+K36P
0.90,3/3,3/9,K24A+S26E+L100M
3.79,1/3,0/9,S38I+S62Y
3.46,1/3,1/9,S28K+Q95I
5.37,2/3,3/9,V29Y+A40E+L100D
4.75,1/3,4/9,K36L+Y97K+P101Q
2.64,3/3,1/9,L30P+E32Q+A57E
4.68,1/3,0/9,L30M+S33R+T59H
2.98,1/3,1/9,R34H+A57F+H98N
4.48,1/3,0/9,S33I+T59G+L102E
1.10,3/3,2/9,S33E+S62A+Q96F
nd,0/3,0/9,S26P+V39P+A40N
1.61,3/3,1/9,S26M+E61I
1.39,3/3,3/9,N35I+Q95P+P101K
1.76,2/3,0/9,L30R+W56Y+Q96W
1.69,3/3,3/9,K24E+S62N+S103M
4.00,1/3,1/9,A57R+R99F
1.45,3/3,1/9,S28M+E61L
0.13,3/3,5/9,Q27P+N35I+W56H
2.99,1/3,0/9,L30E+E32T+E61K
1.47,3/3,0/9,S26E+N35W+H98R
2.58,2/3,0/9,V29Q+N37W+P101Q
3.61,1/3,0/9,S28C+E32M+R60Q
nd,0/3,1/9,R34P+N37S
2.55,3/3,3/9,Q27F+K36Q+V39F
nd,0/3,0/9,S33N+A57Y+L102V
3.29,1/3,0/9,W56M+A57Y+Q95P
2.67,3/3,1/9,V29K+E32H+K36D
0.09,3/3,2/9,W56A+S58L+H98S
2.15,2/3,0/9,S25G+N37R+R99Y

Nonspecific signal, from three strains lacking the peptide, appeared in 18% of pairings of library AAYL50, centred on 4.19 (5% of these signals below 2.99); values are not corrected for it. Also given: how often the same scFv was detected with the empty control strains.
For reference, the parent read 0.65 as the reference entry and 1.68 as a member of this library.